Target: porcine serotonin transporter (pSERT) (Sus scrofa, UniProt F1RN70)
Assay: [3H]paroxetine saturation binding, scintillation proximity assay
Parameters: gene SLC6A4; native pSERT in lysate of porcine brain membranes

`Fc1ccc([C@@H]2CCNC[C@H]2COc2ccc3c(c2)OCO3)cc1` [paroxetine] showed a Kd of 6.5 ± 1.3 nM.
